Measurements from patent US20060063782A1, “3-Hetero arylmethoxy ! pyridines and their analogues as p38 map kinase inhibitors” (priority 2002, published 2006).

Amino acid sequences for entries named in this document (tags omitted).
UniProt Q16539, whole entry: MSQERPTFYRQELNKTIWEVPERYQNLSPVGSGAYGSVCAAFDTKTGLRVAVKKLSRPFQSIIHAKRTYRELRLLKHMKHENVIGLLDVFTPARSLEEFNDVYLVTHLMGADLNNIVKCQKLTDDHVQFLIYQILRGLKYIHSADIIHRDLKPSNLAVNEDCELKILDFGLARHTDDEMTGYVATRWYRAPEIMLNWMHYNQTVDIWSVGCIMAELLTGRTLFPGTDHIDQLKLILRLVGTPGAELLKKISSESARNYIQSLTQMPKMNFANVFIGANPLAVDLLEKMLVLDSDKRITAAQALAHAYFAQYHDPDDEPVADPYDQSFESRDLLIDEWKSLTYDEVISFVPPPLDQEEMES

Biological target: p38 MAP kinase (Homo sapiens, UniProt Q16539)
Experiment: p38 MAP Kinase Assay (33P incorporation into myelin basic protein, filter plate)

c1ccc(COc2cccnc2)cc1 [Compound 7, 3-Benzyloxypyridine]
pIC50: > 2.70

OCCNc1ccc(OCc2c(Cl)cccc2Cl)cn1 [Compound 48]
pIC50: > 3.70

Nc1ncccc1OCc1cccc2ccccc12 [Compound 5, 2-amino-3-(1-naphthylmethyloxy)pyridine]
pIC50: > 3.70

CC(C)(CO)Nc1ccc(OCc2c(Cl)cccc2Cl)cn1 [Compound 74]
pIC50: > 3.70

pIC50: −log10 of the molar value.
